# Target: Prostaglandin G/H synthase 1 (Homo sapiens, UniProt P23219)
# Amino acid sequences for entries named in this document (tags omitted).
# UniProt P23219, whole entry: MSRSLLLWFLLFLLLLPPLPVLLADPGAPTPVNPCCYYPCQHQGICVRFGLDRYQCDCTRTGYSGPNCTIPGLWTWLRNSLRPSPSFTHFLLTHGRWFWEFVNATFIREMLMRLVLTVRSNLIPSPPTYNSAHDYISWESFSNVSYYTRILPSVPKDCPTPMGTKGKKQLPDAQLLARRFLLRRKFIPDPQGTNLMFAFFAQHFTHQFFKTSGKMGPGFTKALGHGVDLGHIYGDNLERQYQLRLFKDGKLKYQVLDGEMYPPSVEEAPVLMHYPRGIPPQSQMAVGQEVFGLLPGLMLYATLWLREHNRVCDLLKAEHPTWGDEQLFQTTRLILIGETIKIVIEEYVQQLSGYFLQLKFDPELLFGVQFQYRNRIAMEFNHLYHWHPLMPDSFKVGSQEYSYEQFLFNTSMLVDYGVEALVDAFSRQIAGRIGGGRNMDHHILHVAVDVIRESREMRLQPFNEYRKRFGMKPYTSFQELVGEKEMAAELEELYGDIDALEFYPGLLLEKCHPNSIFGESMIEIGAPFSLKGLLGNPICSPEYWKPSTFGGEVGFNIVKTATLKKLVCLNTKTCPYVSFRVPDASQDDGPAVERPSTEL
# Assay type: cell-based, Platelet
smiles,measurement,value
O=C(O)CCc1nc(-c2ccccc2)c(-c2ccccc2)o1 [OXAPROZIN],IC50,2200 nM

# Reference: ChEMBL document CHEMBL5370523, “Clinically approved small-molecule drugs for the treatment of rheumatoid arthritis” (Eur J Med Chem, 2023)
